Measurements as given in US10118930B2, “Piperidinylpyrazolopyrimidinones and their use” (BAYER PHARMA AKTIENGESELLSCHAFT, priority 2015, dated 2018).
pIC50: −log10 of the molar value. Counter-ions that a name gives are not always drawn.

test system: clot lysis (fibrinolysis) in diluted human citrated plasma, tPA-induced; assay: Plasma-based clot lysis assay (5%); type: biochemical; settings: human citrated platelet-poor plasma 5%, fibrinogen 3 μM, CaCl2 10 mM, tPA 0.2 nM, 37° C., OD at 405 nm
How it was run: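 Clot formation and breakdown triggered by CaCl2 (10 mM final) plus tPA (0.2 nM final) at 37° C, in 5% diluted human plasma supplemented with 3 μM fibrinogen (HEPES/NaCl/Brij buffer, pH 7). IC50 obtained from time courses relative to a blank control.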

Going from `C[C@H]1CCC[C@H]1c1nc(-c2cnn3c(C4CCNCC4)cc(=O)[nH]c23)no1` (relative stereo) [Example 387, Rel-3-{5-[(1R,2S)-2-methylcyclopentyl]-1,2,4-oxadiazol-3-yl}-7-(piperidin-4-yl)pyrazolo[1,5-a]pyrimidin-5(4H)-one hydrochloride] to `O=c1cc(C2CCNCC2)n2ncc(-c3nc(-c4ccncc4)no3)c2[nH]1` [Example 207, 7-(piperidin-4-yl)-3-[3-(pyridin-4-yl)-1,2,4-oxadiazol-5-yl]pyrazolo[1,5-a]pyrimidin-5(4H)-one hydrochloride], the pIC50 falls from 8.00 to 7.03 (0.97 log units).

In the case of `Cc1cc(-c2nnc(-c3cnn4c(C5CCNCC5)cc(=O)[nH]c34)o2)ccn1` [Example 183, 3-[5-(2-methylpyridin-4-yl)-1,3,4-oxadiazol-2-yl]-7-(piperidin-4-yl)pyrazolo[1,5-a]pyrimidin-5(4H)-one hydrochloride], the pIC50 was 7.30.
